## AlphaSeq binding of Ab-14 light chain variants to a spike HR2 peptide

Reference: Li et al. 2023, doi:10.1038/s41467-023-39022-2. File: FLAb, binding data.

Antigen: PDVDLGDISGINAS, a 14-residue peptide of the SARS-CoV-2 spike HR2 region.

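The parent was found by panning a naive human phage display library on the peptide. Designed CDR sequences, proposed from the first random library and measured here. Group labels follow the data file (Ctrl: baseline library sampled from a position-specific scoring matrix, with some repeated check sequences; GP: Gaussian process model; GPLM: also part of the Gaussian process libraries; HC: hill climbing; Gen: genetic algorithm; a sequence that several methods proposed may carry one label only). The assay is AlphaSeq: two haploid yeast populations carry antibody and antigen on their surface. Binding brings cells together so that they mate, and sequencing counts the barcode pairs among the diploids. A regression on co-assayed BCL2-family reference pairs converts the normalised counts of each replicate to an apparent Kd. Each pool was mated in six replicate cultures.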

Parent: Ab-14, a human scFv built as VH, the linker GGGGSGGGGSGGGGS, VL. Only the CDRs of the light chain vary.
VH: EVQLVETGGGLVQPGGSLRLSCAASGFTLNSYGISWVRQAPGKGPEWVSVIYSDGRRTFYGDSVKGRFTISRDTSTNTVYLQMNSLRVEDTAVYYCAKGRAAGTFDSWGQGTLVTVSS
VL: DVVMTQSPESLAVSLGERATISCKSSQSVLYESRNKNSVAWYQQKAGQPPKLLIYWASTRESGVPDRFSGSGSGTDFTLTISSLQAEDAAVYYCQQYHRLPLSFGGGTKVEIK

Changes read parent residue, position, new residue, counted from the first residue of the VL shown. The read-out is the apparent dissociation constant on a log10 scale (nM): the lower, the stronger. A pair that was not seen in that replicate is written "n.d."; this usually means weak binding, but a binder can also be missed. Three control strains display no target. For all light chain designs, 4% of the pairings with them gave a signal, with a median of 2.64 and one signal in twenty below 1.59, so weak values seen in few replicates may be background. For each scFv, signals with the empty controls are counted beside the result, with their mean in brackets.

changes	group	log10 Kd (nM) by replicate	control signals
K24E/R34M/K36Q/W56S/S62E	Ctrl	1.73 1.02 0.59 0.98 0.99 0.96	0 of 18
S25V/W56A/S58M	Ctrl	-0.13 -0.07 -0.04 -0.24 -0.33 -0.18	0 of 18
Y31P	Ctrl	1.76 1.95 1.08 0.93 1.77 1.36	1 of 18 (2.67)
L30A/K36V/E61V/L102T	Ctrl	n.d. n.d. n.d. n.d. n.d. n.d.	1 of 18 (1.95)
S58F	Ctrl	n.d. n.d. n.d. 2.10 n.d. n.d.	3 of 18 (2.84)
S26P/Q27A/T59A	Ctrl	2.10 2.75 n.d. 2.94 n.d. 3.46	0 of 18
W56H/S58R/Y97C/H98E	Ctrl	n.d. n.d. n.d. n.d. n.d. n.d.	0 of 18
S26K/R34A/N37Y/W56G/Q95E	Ctrl	1.12 1.43 1.07 1.07 1.28 1.35	5 of 18 (3.28)
L30F/Y31E/W56Q	Ctrl	0.35 0.12 0.33 0.15 0.29 0.52	1 of 18 (2.81)
R34T/T59Q/H98M	Ctrl	1.24 1.23 0.65 0.68 0.84 1.36	2 of 18 (1.54)
Y31V/N35Y/S103D	Ctrl	n.d. 1.68 n.d. 2.66 1.98 1.54	0 of 18
S25W/W56Q/L100N	Ctrl	0.45 0.82 0.02 0.01 0.01 -0.01	1 of 18 (1.66)
S28M/V29F	Ctrl	n.d. n.d. n.d. n.d. 2.51 n.d.	0 of 18
N35G/Y97M	Ctrl	n.d. 1.60 2.11 n.d. n.d. 2.10	0 of 18
N35K/S62D/P101H	Ctrl	n.d. n.d. n.d. n.d. n.d. n.d.	0 of 18
S25V/V29D/W56N	Ctrl+GP_Gen	0.02 -0.08 -0.07 -0.34 -0.03 0.13; 0.53 0.81 0.69 0.85 0.76 0.84	3 of 36 (2.88)
S25I/W56H/P101H	Ctrl	0.69 0.49 0.48 0.54 0.74 0.99	0 of 18
R34Q/S58M	Ctrl	n.d. n.d. n.d. 1.55 n.d. n.d.	0 of 18
Y97H	Ctrl	n.d. n.d. n.d. n.d. n.d. n.d.	0 of 18
S25Q/S26D/Q27G/N37G/W56G/R99G	Ctrl	0.68 0.67 0.28 0.37 0.25 0.56	0 of 18
L30T/Y31M/W56R	Ctrl	1.67 1.86 1.63 1.98 1.87 2.30	0 of 18
S25H/V29L/N35F/T59E/S103W	Ctrl	n.d. n.d. n.d. n.d. n.d. n.d.	0 of 18
S25F/W56G/T59H/Q96Y/Y97I	Ctrl	0.50 -0.14 -0.28 -0.15 0.15 -0.04	1 of 18 (2.68)
K24S/S26G/N37I	Ctrl	n.d. n.d. n.d. n.d. n.d. n.d.	1 of 18 (2.08)
W56A	Ctrl+GPLM_HC	1.15 1.15 0.92 0.75 0.97 1.33; 0.80 0.97 0.41 0.64 0.94 0.68	1 of 36 (3.00)
S26D/S28R/H98G	Ctrl	n.d. n.d. n.d. n.d. n.d. n.d.	0 of 18
S25W/V29W/W56T/Y97G	Ctrl	n.d. n.d. n.d. n.d. n.d. n.d.	0 of 18
E32M	Ctrl	1.05 n.d. n.d. n.d. n.d. n.d.	2 of 18 (1.73)
L30W/R34E/H98E/L100S	Ctrl	n.d. n.d. n.d. n.d. n.d. n.d.	1 of 18 (2.53)
L30E/N35A/W56Q	Ctrl	1.15 1.15 0.97 1.06 0.91 0.94	2 of 18 (2.07)
S26I/R34D/W56Q/E61C	Ctrl	0.26 -0.11 0.54 0.40 0.53 0.37	0 of 18
S25F/S26Q/V29M/N35K/S38Q	Ctrl	n.d. n.d. n.d. n.d. n.d. n.d.	0 of 18
Q27S/A57D	Ctrl	2.97 2.91 1.66 1.91 1.96 2.45	0 of 18
S25F/V29T/K36F	Ctrl	0.92 0.68 0.98 0.89 0.70 0.65	0 of 18
S25L/Q27H/S33T/R34F/N35D	Ctrl	1.29 0.73 0.82 0.69 0.91 1.09	0 of 18
S25F/T59N	Ctrl	1.80 1.79 0.81 1.43 1.08 1.66	1 of 18 (1.93)
L30G/S38N/E61H/H98F	Ctrl	0.76 1.35 0.95 1.59 1.23 0.97	1 of 18 (1.99)
Y31E/N37Q/V39L/W56D/R60L/S103K	Ctrl	0.66 0.48 0.70 0.20 0.10 0.79	0 of 18
S28L/W56Q/S62P/L102C	Ctrl	n.d. n.d. n.d. n.d. n.d. n.d.	0 of 18
V29I/R34M/L100Q/S103P	Ctrl	n.d. n.d. n.d. n.d. n.d. n.d.	0 of 18
S25I/Y31K/N35K/S38D/L100E	Ctrl	n.d. n.d. n.d. n.d. n.d. n.d.	0 of 18
S28P/W56S	Ctrl	1.60 0.85 0.86 1.13 1.12 1.21	1 of 18 (2.37)

Picked from the list: the 7 lowest averages where every replicate gave a value.

changes	group	log10 Kd (nM) by replicate	control signals
S25V/W56A/S58M	Ctrl	-0.13 -0.07 -0.04 -0.24 -0.33 -0.18	0 of 18
S25F/W56G/T59H/Q96Y/Y97I	Ctrl	0.50 -0.14 -0.28 -0.15 0.15 -0.04	1 of 18 (2.68)
S25W/W56Q/L100N	Ctrl	0.45 0.82 0.02 0.01 0.01 -0.01	1 of 18 (1.66)
L30F/Y31E/W56Q	Ctrl	0.35 0.12 0.33 0.15 0.29 0.52	1 of 18 (2.81)
S26I/R34D/W56Q/E61C	Ctrl	0.26 -0.11 0.54 0.40 0.53 0.37	0 of 18
S25V/V29D/W56N	Ctrl+GP_Gen	0.02 -0.08 -0.07 -0.34 -0.03 0.13; 0.53 0.81 0.69 0.85 0.76 0.84	3 of 36 (2.88)
S25Q/S26D/Q27G/N37G/W56G/R99G	Ctrl	0.68 0.67 0.28 0.37 0.25 0.56	0 of 18

The authors' rule: three or more of the six replicates give a measured affinity, fewer mean a poor binder. A sequence measured in both rounds can read differently, since the two assays cover different ranges. Where one sequence has several entries in the source, the replicates are listed entry by entry, parted by semicolons.